Experimental data as given in ChEMBL document CHEMBL1122674, “Aporphines. 58. N-(2-chloroethyl) [8,9-2H]norapomorphine, an irreversible ligand for dopamine receptors: synthesis and application” (J Med Chem, 1984).

Amino acid sequences for entries named in this document (tags omitted).
UniProt Q9GJU1, whole entry: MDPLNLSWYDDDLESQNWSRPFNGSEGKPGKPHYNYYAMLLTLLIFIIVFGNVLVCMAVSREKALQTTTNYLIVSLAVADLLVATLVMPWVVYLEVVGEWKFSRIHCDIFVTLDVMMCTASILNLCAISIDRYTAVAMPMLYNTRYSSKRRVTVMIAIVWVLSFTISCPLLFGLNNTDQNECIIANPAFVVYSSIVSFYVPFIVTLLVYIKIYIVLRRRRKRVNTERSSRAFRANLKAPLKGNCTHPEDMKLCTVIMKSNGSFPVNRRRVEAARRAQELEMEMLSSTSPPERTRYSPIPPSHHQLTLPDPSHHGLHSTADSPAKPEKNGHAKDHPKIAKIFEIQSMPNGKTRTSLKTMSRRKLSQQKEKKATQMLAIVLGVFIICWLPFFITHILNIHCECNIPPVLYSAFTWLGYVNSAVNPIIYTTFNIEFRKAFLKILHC

Target: D(2) dopamine receptor (Canis lupus familiaris, UniProt Q9GJU1)
Assay: The IC50 value was reported as apparent, since [3H]NCA was purported to be irreversible (dopamine receptor from Canine striatal membranes). Result indicates the mean of two separate experiments, each performed in triplicate.

IC50: 200 nM
SMILES: CCN1CCCC1CNC(=O)c1cc(S(N)(=O)=O)ccc1OC (racemic) [SULPIRIDE]
